Patent publication US20210162009A1, “CHEMOKINE VARIANTS AS IMMUNE STIMULANTS” (THE MEDICAL COLLEGE OF WISCONSIN, INC., priority 2017, published 2021)
pKd: −log10 of the molar value.

By UniProt entry, the sequences of proteins in these tests, tags left out. Residues count along the entry.
UniProt P48061, 22-89 limits assumed: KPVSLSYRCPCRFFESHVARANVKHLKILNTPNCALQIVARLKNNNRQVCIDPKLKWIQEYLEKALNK

Target: wild-type CXCL12 (Homo sapiens (Human)) (UniProt P48061)
Experiment: translational diffusion measurements (Ds versus concentration, non-linear fit), 20 mM sodium phosphate pH 7.4; self-association

- pKd: 3.92
Substance: wild-type CXCL12 (from UniProt P48061 22-89) (ligand; other documents disagree on this pair)
